pKd: −log10 of the molar value.
Key:
CFTR [1] = molecular target: T1, CFTR (Homo sapiens, UniProt P13569)
CFTR [2] = molecular target: T1, CFTR; remark: listed apart in the source
wildtype CFTR [3] = molecular target: T2, wildtype CFTR (Homo sapiens, UniProt P13569); assay: Short-circuit current in primary culture of human bronchial epithelial cells
wildtype CFTR [4] = molecular target: T2, wildtype CFTR; assay: YFP fluorescence assay of CFTR-mediated I− transport in FRT cells; format: cell-based; parameters: expressed in transfected cells; host or cells: Fischer rat thyroid (FRT) cells, stably transfected, co-expressing YFP-H148Q
Method: FIG. 1A is a schematic representation of a screening technique used for detection of CFTR inhibitors. CFTR was maximally stimulated by multiple agonists in stably transfected epithelial cells co-expressing human CFTR and a yellow fluorescent protein (YFP) having Cl^−/I^− sensitive fluorescence. After addition of a test compound, I^− influx was induced by adding an I^− containing solution.
Cells were plated in 96-well black-walled microplates (Corning Costar) at a density of 20,000 cells per well in Coon's modified F12 medium supplemented with 5% fetal calf serum, 2 mM L-glutamine, 100 U/ml penicillin, and 100 μg/ml streptomycin. Assays were done at 48 h after plating at which time cells were just confluent (˜40,000 cells per well).
Assays were done using a customized screening system (Beckman) consisting of a 3-meter robotic arm, CO2 incubator, plate washer, liquid handling workstation, bar code reader, delidding station, and two FluoStar fluorescence plate readers (BMG Labtechnologies, Offenburg, Germany), each equipped with two syringe pumps and HQ500/20X (500±10 nm) excitation and HQ535/30M (535±15 nm) emission filters (Chroma). The robotic system was integrated using SAMI version 3.3 software (Beckman) modified for two plate readers. Custom software was written in VBA (Visual Basic for Applications) to compute baseline-subtracted, normalized fluorescence slopes (giving halide influx rates) from stored data files.
The assay was set-up by loading the incubator (37° C., 90% humidity, 5% CO2) with 40-60 96-well plates containing the FRT cells, and loading a carousel with 96-well plates containing test compounds and disposable plastic pipette tips. To initiate the assay, each well of a 96-well plate was washed 3 times in PBS (300 μl/wash), leaving 50 μl PBS. Ten μl of a CFTR-activating cocktail (5 μM forskolin, 100 μM IBMX, 25 μM apigenin in PBS) was added, and after 5 min one test compound (0.5 μl of 1 mM DMSO solution) was added to each well to give 10 μM final concentration. After 10 min, 96-well plates were transferred to a plate reader for fluorescence assay. Each well was assayed individually for CFTR-mediated I^− transport by recording fluorescence continuously (200 ms per point) for 2 s (baseline) and then for 12 s after rapid (<0.5 s) addition of 160 μL of isosmolar PBS in which 137 mM Cl^− was replaced by I^−.
The primary screening technique used to identify the compounds of the invention was designed to identify inhibitors of CFTR Cl^− conductance by direct CFTR-inhibitor interaction. CFTR was pre-stimulated in CFTR-expressing FRT cells by an activating cocktail containing forskolin, IBMX and apigenin, as shown schematically in FIG. 1A. The activation of CFTR by multiple mechanisms (cAMP elevation, phosphodiesterase inhibition, and direct CFTR binding) allowed identification of inhibitors that blocked the CFTR Cl^− transporting pathway directly rather than more proximal step(s) in a signaling pathway. The FRT cells co-expressed a yellow fluorescent protein-based Cl^−/I^− sensor that provided a quantitative fluorescence read-out of inhibition potency (See, e.g., Jayaraman et al., 2000, J. Biol. Chem. 275:6047-6050; Galietta et al., 2001, Am. J. Physiol. 281:C1734-C1742.). After CFTR pre-stimulation and compound addition, cells were subjected to an inwardly-directed I^− gradient to drive I^− influx and produce decreasing fluorescence. Each assay consisted of recording baseline fluorescence for 2 seconds, followed by 12 seconds of continuous recording of fluorescence after rapid addition of the I^− containing solution. Compounds were tested separately at 10 μM concentration in a 96-well format utilizing a fully-automated high-throughput screening apparatus (see Example 2 below).

Chains of the proteins cited; added tags and fusions are not shown.
UniProt P13569, whole entry: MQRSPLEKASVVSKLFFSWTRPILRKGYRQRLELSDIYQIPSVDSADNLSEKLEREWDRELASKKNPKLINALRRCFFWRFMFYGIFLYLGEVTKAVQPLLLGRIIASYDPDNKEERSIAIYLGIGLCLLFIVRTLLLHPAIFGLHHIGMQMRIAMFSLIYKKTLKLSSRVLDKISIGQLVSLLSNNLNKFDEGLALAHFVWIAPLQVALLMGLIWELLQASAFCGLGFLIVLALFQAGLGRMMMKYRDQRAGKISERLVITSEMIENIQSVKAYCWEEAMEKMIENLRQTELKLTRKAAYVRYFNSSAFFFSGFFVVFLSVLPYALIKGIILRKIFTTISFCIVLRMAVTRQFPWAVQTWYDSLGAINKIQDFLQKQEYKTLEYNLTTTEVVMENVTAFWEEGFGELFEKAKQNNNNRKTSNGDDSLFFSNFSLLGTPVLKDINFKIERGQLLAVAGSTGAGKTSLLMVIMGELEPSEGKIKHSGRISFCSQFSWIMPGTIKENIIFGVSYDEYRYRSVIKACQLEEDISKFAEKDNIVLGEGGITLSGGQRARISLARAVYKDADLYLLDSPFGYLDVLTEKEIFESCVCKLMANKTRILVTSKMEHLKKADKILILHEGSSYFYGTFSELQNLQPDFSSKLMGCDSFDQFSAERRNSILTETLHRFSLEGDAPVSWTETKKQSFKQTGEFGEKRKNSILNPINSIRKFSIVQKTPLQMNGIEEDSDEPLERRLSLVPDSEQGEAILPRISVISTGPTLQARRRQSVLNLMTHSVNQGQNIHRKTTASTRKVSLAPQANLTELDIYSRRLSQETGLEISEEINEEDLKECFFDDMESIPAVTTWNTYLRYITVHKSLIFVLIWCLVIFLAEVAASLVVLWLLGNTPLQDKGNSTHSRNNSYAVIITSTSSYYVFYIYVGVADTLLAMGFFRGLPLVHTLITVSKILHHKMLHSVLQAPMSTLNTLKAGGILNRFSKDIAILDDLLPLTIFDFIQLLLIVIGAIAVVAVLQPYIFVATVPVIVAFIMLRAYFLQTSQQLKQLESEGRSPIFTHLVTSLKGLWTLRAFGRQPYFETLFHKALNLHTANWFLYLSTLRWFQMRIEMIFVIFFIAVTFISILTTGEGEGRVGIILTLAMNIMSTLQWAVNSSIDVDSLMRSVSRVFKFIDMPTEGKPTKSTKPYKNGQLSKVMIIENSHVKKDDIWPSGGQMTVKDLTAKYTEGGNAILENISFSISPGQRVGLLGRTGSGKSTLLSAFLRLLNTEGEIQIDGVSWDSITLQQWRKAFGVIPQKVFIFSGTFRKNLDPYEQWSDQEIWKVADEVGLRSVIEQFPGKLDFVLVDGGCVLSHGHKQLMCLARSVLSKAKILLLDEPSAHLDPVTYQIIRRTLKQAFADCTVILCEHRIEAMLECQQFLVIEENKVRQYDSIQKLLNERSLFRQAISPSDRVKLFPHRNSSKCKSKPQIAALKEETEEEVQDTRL

3-[(3-trifluoromethyl)phenyl]-5-[(4-carboxyphenyl)methylene]-2-thioxo-4-thiazolidinone [CFTRinh-172]
inhibition of membrane current (CFTR [1]; 0.2 μM, forskolin stimulation): ~50%
effect on whole-cell membrane current (CFTR [1]; 2 μM, 5 μM forskolin stimulation): rapid reduction in current at all membrane potentials
Hill coefficient (CFTR [2]; dose-inhibition of short-circuit current): ~1
pKd (CFTR [2]; read-out: Kd, inhibition of short-circuit current, CFTR stimulated by 100 μM CPT-cAMP, apical addition): ~6.52
effect on short-circuit current, basolateral side (wildtype CFTR [3]; added from the basolateral side): also inhibited short-circuit current
effect on short-circuit current, apical side (wildtype CFTR [3]; amiloride, maximal activation by CPT-cAMP, apical application): inhibited short-circuit current strongly
inhibition of CFTR activation by different agonists (wildtype CFTR [4]; 5 μM inhibitor, agonists 50 μM (genistein, CPT-cAMP, CPX, 8-MPO, UCCF-029, UCCF-853)): effectively inhibited CFTR activation by multiple types of agonists
t1/2 of inhibition (wildtype CFTR [4]; after addition of 2 μM): 4 min
time to complete inhibition (wildtype CFTR [4]; after addition of 2 μM): ~10 min
concentrations at which significant CFTR inhibition was seen (wildtype CFTR [4]; dose-inhibition, FIG. 2A): 0.3 to 0.6 µM
relative potency (CFTR inhibitory activity) (wildtype CFTR [4]; relative to CFTRinh-172 = 1.0): 1.0
t1/2 of inhibition reversal after washout (wildtype CFTR [4]; washout of 1 μM): ~5 min

From patent US20040063695A1, “Cystic fibrosis transmembrane conductance regulator protein inhibitors and uses thereof” (priority 2002, published 2004)
